Measured values taken from BindingDB's records for doi:10.1016/S0968-0896(02)00561-8 (Purdue University, 2003).

Sequences of proteins named here, by UniProt entry; tags and fusion partners are left off.
UniProt P18901, whole entry: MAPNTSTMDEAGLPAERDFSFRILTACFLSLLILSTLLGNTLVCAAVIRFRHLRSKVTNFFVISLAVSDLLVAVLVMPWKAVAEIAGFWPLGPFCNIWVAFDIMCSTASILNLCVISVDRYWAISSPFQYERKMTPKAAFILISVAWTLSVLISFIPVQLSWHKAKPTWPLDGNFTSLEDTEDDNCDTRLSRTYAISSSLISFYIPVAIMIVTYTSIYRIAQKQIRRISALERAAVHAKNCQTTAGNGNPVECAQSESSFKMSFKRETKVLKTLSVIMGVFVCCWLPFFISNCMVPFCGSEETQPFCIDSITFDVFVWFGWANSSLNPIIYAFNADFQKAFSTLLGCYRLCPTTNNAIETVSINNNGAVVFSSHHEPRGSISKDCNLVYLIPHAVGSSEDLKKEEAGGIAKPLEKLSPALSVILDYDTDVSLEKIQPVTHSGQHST

Biological target: D(1A) dopamine receptor (Rattus norvegicus, UniProt P18901)

- Ki: 6.1 nM
SMILES: Oc1ccc2c(c1O)Cc1cccc3c1[C@H]2CNC3 [Dinapsoline, (R)(+)]
